Source: PubChem BioAssay AID798 (PCMD, 2007)
The entries are a selection whose mix differs from that of the whole data set. Some salts or complexes appear as unconnected parts, following the source record. Active and inactive are the calls of the source.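 The calls were made as follows: active = inhibition of at least 40%; inactive = inhibition below 40%.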

Sequences of proteins named here, by UniProt entry; tags and fusion partners are left off. Residues count along the entry.
UniProt P03951, 19-387 limits assumed: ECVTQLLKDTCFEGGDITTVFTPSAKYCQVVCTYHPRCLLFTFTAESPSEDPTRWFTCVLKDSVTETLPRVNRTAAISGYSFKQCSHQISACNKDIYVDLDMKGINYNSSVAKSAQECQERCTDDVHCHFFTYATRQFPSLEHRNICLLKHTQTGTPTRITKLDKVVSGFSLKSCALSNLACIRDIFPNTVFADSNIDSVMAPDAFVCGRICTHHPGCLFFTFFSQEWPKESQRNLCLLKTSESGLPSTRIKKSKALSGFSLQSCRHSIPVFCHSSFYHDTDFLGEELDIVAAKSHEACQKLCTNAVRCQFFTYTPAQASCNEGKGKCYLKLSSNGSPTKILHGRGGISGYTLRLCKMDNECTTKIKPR
UniProt P03951, 388-625 limits assumed: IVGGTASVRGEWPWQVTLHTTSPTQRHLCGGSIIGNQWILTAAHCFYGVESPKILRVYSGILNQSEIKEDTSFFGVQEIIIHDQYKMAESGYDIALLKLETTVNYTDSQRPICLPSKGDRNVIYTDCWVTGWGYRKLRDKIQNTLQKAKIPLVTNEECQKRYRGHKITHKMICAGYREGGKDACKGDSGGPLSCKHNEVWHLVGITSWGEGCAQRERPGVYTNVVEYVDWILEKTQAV

What follows are compounds tested against Coagulation factor XI (Homo sapiens) (UniProt P03951) (assay: factor XIa enzyme inhibition, large library – biochemical, 1536-well, primary screen (AID 798;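 also: fluorescence of freed AMC excited at 355 nm; 0% = enzyme without compound and 100% = no enzyme blank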)). Conditions: purified FXIa, Boc-Glu-Ala-Arg-AMC fluorogenic substrate; at 5 µM; active compounds read high.
For CP(=O)(Oc1ccccc1)OC(c1ccccc1)C(F)(F)F (stereo not drawn), the inhibition was inactive: 1.13%. With CP(=O)(Nc1ccc(SC(F)(F)F)cc1)Oc1ccc(Cl)cc1 (stereo not drawn) the inhibition was inactive: 3.41%. In the case of Cc1cccc(C)c1OP(C)(=O)Nc1ccc(SC(F)(F)F)cc1 (stereo not drawn), the inhibition is reported as inactive: 0.41%. In the case of Cc1cc(C)cc(OP(C)(=O)Nc2ccc(SC(F)(F)F)cc2)c1 (stereo not drawn), the inhibition is reported as inactive: 17.3%. CCc1ccc(OP(C)(=O)N2CCN(c3ccc([N+](=O)[O-])cc3)CC2)cc1 (stereo not drawn) was tested, and the inhibition was inactive: -2.24%. With CP(=O)(NC(=O)Nc1ccccc1)Oc1ccccc1 (stereo not drawn) the inhibition was inactive: 2.64%. For CCOP(C)(=S)SCC(=O)NC(C)C(=O)O (stereo not drawn), the inhibition was inactive: 3.52%. With CCOC(=O)c1ccc(NP(C)(=O)Oc2ccc(OC)cc2)cc1 (stereo not drawn) the inhibition was inactive: 7.21%. CP(=O)(Nc1ccccn1)Oc1ccc(Cl)cc1 (stereo not drawn) was tested, and the inhibition was inactive: -4.6%. CP(=S)(Nn1cnnc1)Oc1ccccc1 (stereo not drawn) was tested, and the inhibition was inactive: 1.56%. In the case of COc1ccccc1OP(C)(=O)Nc1ccccc1 (stereo not drawn), the inhibition is reported as inactive: -7.5%. CP(=O)(Nc1ccccc1Br)Oc1ccccc1 (stereo not drawn) was tested, and the inhibition was inactive: 3.47%. With Cc1cccc(C)c1OP(C)(N)=O (stereo not drawn) the inhibition was inactive: -3.32%. In the case of CC(C)(C)c1ccc(OP(C)(=O)Nc2ccc(SC(F)(F)F)cc2)cc1 (stereo not drawn), the inhibition is reported as inactive: 8.85%. With O=[N+]([O-])c1ccc2c(c1)C=Nc1ccccc1O2 the inhibition was inactive: -2.45%. CCOC(=O)c1ccc(NP(C)(=O)Oc2ccccc2)cc1 (stereo not drawn) was tested, and the inhibition was inactive: -35.9%. Cc1ccc(NP(C)(=O)Oc2ccccc2)c(C)c1 (stereo not drawn) was tested, and the inhibition was inactive: -5.56%. In the case of COc1ccccc1OP(C)(=O)Nc1ccc(C)cc1 (stereo not drawn), the inhibition is reported as inactive: 12.2%. For COc1ccc(OP(C)(=O)Nc2cccc(F)c2)cc1 (stereo not drawn), the inhibition was inactive: 5.58%. In the case of COc1ccccc1OP(C)(=O)Nc1cc(Cl)ccc1C (stereo not drawn), the inhibition is reported as inactive: -4.7%. For Cc1cc(C)cc(OP(C)(N)=O)c1 (stereo not drawn), the inhibition was inactive: 2.93%. In the case of CCN(CC)CCCOC(=O)C(O)(c1ccccc1)c1ccccc1, the inhibition is reported as inactive: 0.86%. With COc1ccccc1OP(C)(=O)Nc1cccc(Br)c1 (stereo not drawn) the inhibition was inactive: 1.24%. With Cc1cc(C)cc(OP(C)(=O)Nc2ccc(C)cc2C)c1 (stereo not drawn) the inhibition was inactive: -8.64%. For CCOC(=O)c1ccc(NP(C)(=O)Oc2cc(C)cc(C)c2)cc1 (stereo not drawn), the inhibition was inactive: -4.77%. In the case of CP(=O)(Nc1cccc(Br)c1)Oc1ccccc1 (stereo not drawn), the inhibition is reported as inactive: -0.93%. With Cc1cc(C)cc(OP(C)(=O)Nc2ccccn2)c1 (stereo not drawn) the inhibition was inactive: -8.34%. For Cc1ccc(C)c(NP(C)(=O)Oc2ccccc2)c1 (stereo not drawn), the inhibition was inactive: 22.4%. O=C(O)c1cccc(Nc2c([N+](=O)[O-])cc([N+](=O)[O-])cc2[N+](=O)[O-])c1 was tested, and the inhibition was inactive: -4.16%. For CC1=NCCc2c1[nH]c1ccccc21.O=[N+]([O-])c1cc([N+](=O)[O-])c(O)c([N+](=O)[O-])c1, the inhibition was inactive: -5.97%. CCOC(=O)C(CC)C1=NC(C)(C)Cc2ccccc21.O=[N+]([O-])c1cc([N+](=O)[O-])c(O)c([N+](=O)[O-])c1 (stereo not drawn) was tested, and the inhibition was inactive: 1.04%. In the case of O=[N+]([O-])c1cc([N+](=O)[O-])c(Nc2nnnn2CCO)c([N+](=O)[O-])c1, the inhibition is reported as inactive: 0.56%. For CN1CCCCC1COC(=O)C1(O)c2ccccc2CCc2ccccc21 (stereo not drawn), the inhibition was inactive: 8.94%. With COc1ccccc1OP(C)(=O)Nc1c(C)cccc1C (stereo not drawn) the inhibition was inactive: -13.9%. With CP(=O)(Nc1ccc(SC(F)(F)F)cc1)Oc1ccccc1 (stereo not drawn) the inhibition was inactive: -6.99%. With CCCOc1ccc(NP(C)(=O)Oc2ccc(Cl)cc2)cc1 (stereo not drawn) the inhibition was inactive: 2.45%. In the case of O=[N+]([O-])c1cc([N+](=O)[O-])c(-n2nnc3ccccc32)c([N+](=O)[O-])c1, the inhibition is reported as inactive: 1.68%. In the case of Cc1nc2ccc3ccccc3c2s1.O=[N+]([O-])c1cc([N+](=O)[O-])c(O)c([N+](=O)[O-])c1, the inhibition is reported as inactive: 0.91%. For CP(=O)(Nc1ccc(SC(F)(F)F)cc1)Oc1ccc(F)cc1 (stereo not drawn), the inhibition was inactive: 1.01%. CCOP(C)(=S)SCC(=O)NC(C)(CC)C(=O)O (stereo not drawn) was tested, and the inhibition was inactive: -10.8%. With CP(=O)(Nc1ccc2c(c1)OCCO2)Oc1ccccc1 (stereo not drawn) the inhibition was inactive: 16.3%. With Cc1ccccc1NP(C)(=O)Nc1ccccc1C the inhibition was inactive: 2.78%. In the case of COc1ccc(OP(C)(=O)Nc2cccc(Br)c2)cc1 (stereo not drawn), the inhibition is reported as inactive: 0.32%. With COc1ccc(NP(C)(=O)Oc2ccccc2OC)cc1 (stereo not drawn) the inhibition was inactive: -4.9%. In the case of CN(C)CCOC(=O)C(O)(c1ccccc1)C1CCCCC1 (stereo not drawn), the inhibition is reported as inactive: 4.6%. For O=[N+]([O-])c1cc([N+](=O)[O-])c(NCC2CCS(=O)(=O)C2)c([N+](=O)[O-])c1 (stereo not drawn), the inhibition was inactive: -1.4%. With Cc1cc(-c2cccc3ccccc23)c(C)cn1.O=[N+]([O-])c1cc([N+](=O)[O-])c(O)c([N+](=O)[O-])c1 the inhibition was inactive: 4.69%. O=[N+]([O-])c1ccc(OP2(=O)COCCO2)cc1 (stereo not drawn) was tested, and the inhibition was inactive: -3.45%. For COc1ccc(OP(C)(=O)Nc2ccc(SC(F)(F)F)cc2)cc1 (stereo not drawn), the inhibition was inactive: -4.12%. For CCOC(=O)c1ccc(NP(C)(=O)Oc2ccc(F)cc2)cc1 (stereo not drawn), the inhibition was inactive: -6.47%. In the case of CCN(CC)CCCOC(=O)C(O)(c1ccccc1)C1CCCCC1 (stereo not drawn), the inhibition is reported as inactive: -5.46%. With CCCCCOc1ccc(NP(C)(=O)Oc2ccc(Cl)cc2Cl)cc1 (stereo not drawn) the inhibition was inactive: 3.22%. For CP(=O)(Nc1ccccc1)Oc1ccc(F)cc1 (stereo not drawn), the inhibition was inactive: 2.47%. With CC(C)c1ccc(OP(C)(=O)Nc2ccc(SC(F)(F)F)cc2)cc1 (stereo not drawn) the inhibition was inactive: 4.97%. For CP(=O)(Nc1ccccc1F)Oc1ccccc1 (stereo not drawn), the inhibition was inactive: -8.9%. O=C(OCCN1CCN(CCOCc2ccccc2)CC1)C(O)(c1ccccc1)c1ccccc1 was tested, and the inhibition was inactive: 7.02%. O=C(OC1CN2CCC1CC2)c1ccc([N+](=O)[O-])cc1 (stereo not drawn) was tested, and the inhibition was inactive: 2.34%. With COc1ccc2c(c1O)-c1c(O)c(OC)cc3c1[C@H](C2)[N+](C)(C)CC3.O=[N+]([O-])c1cc([N+](=O)[O-])c([O-])c([N+](=O)[O-])c1[O-] the inhibition was inactive: 4.92%. With COc1ccccc1OP(C)(=O)Nc1ccc(Br)cc1 (stereo not drawn) the inhibition was inactive: -2.9%. CN(C)CCOC(=O)C(O)(c1ccccc1)C1CCCC1 (stereo not drawn) was tested, and the inhibition was inactive: -6.35%. In the case of COc1ccc(OP(C)(=O)Nc2ccccn2)cc1 (stereo not drawn), the inhibition is reported as inactive: 14.7%. For O=[N+]([O-])c1cc([N+](=O)[O-])c(Nc2ccccn2)c([N+](=O)[O-])c1, the inhibition was inactive: -3.46%. In the case of Cc1c(NP(C)(=O)Oc2ccc(C(C)C)cc2)c(=O)n(-c2ccccc2)n1C (stereo not drawn), the inhibition is reported as inactive: -7.63%. For CCc1ccc(OP(C)(=O)O)cc1, the inhibition was inactive: 3.78%. In the case of COc1ccccc1OP(C)(=O)Nc1ccc(C)cc1C (stereo not drawn), the inhibition is reported as inactive: -6.67%. With CP(=O)(Nc1ccccn1)Oc1ccccc1 (stereo not drawn) the inhibition was inactive: 4.5%. For Cc1cc(C)cc(OP(C)(=O)Nc2cccc(C(F)(F)F)c2)c1 (stereo not drawn), the inhibition was inactive: 0.89%. COc1ccc(OP(C)(=O)Nc2ccccc2Br)cc1 (stereo not drawn) was tested, and the inhibition was inactive: 7.41%. In the case of COc1ccccc1OP(C)(=O)Nc1ccc(C)c(C)c1 (stereo not drawn), the inhibition is reported as inactive: 1.9%. For Cc1nc2ccc3ccccc3c2o1.O=[N+]([O-])c1cc([N+](=O)[O-])c(O)c([N+](=O)[O-])c1, the inhibition was inactive: -4.6%. In the case of CP(=O)(OCCOc1ccccc1)OCCOc1ccccc1, the inhibition is reported as inactive: -2.18%. CP(=O)(Nc1ccc(Cl)cc1Cl)Oc1ccccc1 (stereo not drawn) was tested, and the inhibition was inactive: 0.75%. With CP(=O)(OC12CC3CC(CC(C3)C1)C2)OC12CC3CC(CC(C3)C1)C2 the inhibition was inactive: -4.75%. CCOC(=O)c1ccc(NP(C)(=O)Oc2ccc(Cl)cc2)cc1 (stereo not drawn) was tested, and the inhibition was inactive: 5.54%. With COc1ccc(OP(C)(=O)Nc2ccc(Br)cc2)cc1 (stereo not drawn) the inhibition was inactive: -4.39%. CCN(CC)CC(O)COC(=O)C(O)(c1ccccc1)C1CCCCC1 (stereo not drawn) was tested, and the inhibition was inactive: -1.81%. For CCc1ccc(OP(C)(=O)Nc2cccnc2)cc1 (stereo not drawn), the inhibition was inactive: -5.47%. With CP(=O)(Oc1ccccc1)N1CCOC1=O (stereo not drawn) the inhibition was inactive: 9.28%. O=C(OCCCN1CCCC1)C(O)(c1ccccc1)C1CCCCC1 (stereo not drawn) was tested, and the inhibition was inactive: 3.1%. With CP(=O)(Nc1ccc(Cl)cc1)Oc1ccc(F)cc1 (stereo not drawn) the inhibition was inactive: -5%. With CC(C)(C)c1ccc(OP(C)(=O)O)cc1 the inhibition was inactive: 2.39%. With COc1ccccc1OP(C)(=O)Nc1ccccc1Br (stereo not drawn) the inhibition was inactive: -0.04%. With CN(C)C(=O)c1c([N+](=O)[O-])cc([N+](=O)[O-])cc1[N+](=O)[O-] the inhibition was inactive: -2.29%.
